# Earlier results as cited in US9803220B2, “Production of alkenes from 3-hydroxy-1-carboxylic acids via 3-sulfonyloxy-1-carboxylic acids” (Scientist of Fortune S.A., priority 2012, dated 2017).
# Test system: Rhodotorula minuta
# Details: conversion of isovalerate to isobutylene; Fujii T. et al., 1988; cited from earlier work
substance,measurement,value
isovalerate,turnover number (kcat),1e-05 s⁻¹
